Yeast mating assay B: variants of the scFv Ab-14

Source: Li et al. 2023 (doi:10.1038/s41467-023-39022-2), MIT Lincoln Laboratory and A-Alpha Bio; data file from the FLAb repository.

Target: peptide PDVDLGDISGINAS, taken from heptad repeat 2 (HR2) of SARS-CoV-2 spike.

Parent scFv Ab-14: VH joined to VL by a (GGGGS)3 linker. Changes lie in the light chain CDRs alone.
VH: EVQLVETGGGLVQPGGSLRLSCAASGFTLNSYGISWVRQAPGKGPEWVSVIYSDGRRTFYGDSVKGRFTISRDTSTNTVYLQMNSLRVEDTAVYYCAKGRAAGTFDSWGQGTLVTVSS
VL: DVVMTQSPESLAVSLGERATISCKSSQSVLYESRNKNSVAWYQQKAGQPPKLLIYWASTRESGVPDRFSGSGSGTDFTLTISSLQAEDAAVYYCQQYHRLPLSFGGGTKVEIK

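The starting antibody came from a phage panning campaign against this peptide. The variants were designed computationally from a first round of random CDR variants and then made and measured. Group labels follow the data file (Ctrl: baseline library sampled from a position-specific scoring matrix, with some repeated check sequences; GP: Gaussian process model; HC: hill climbing; Gen: genetic algorithm; Gibbs: Gibbs sampling; a sequence that several methods proposed may carry one label only). AlphaSeq pools MATa yeast showing the antibodies with MATalpha yeast showing the peptide. The frequency of each diploid, read from paired DNA barcodes, reflects how well the two displayed proteins bind. Read counts were normalised to the haploid input and turned into Kd by a linear fit to BCL2-family pairs of known affinity, for each replicate. The assay was run in six technical replicates.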

The whole VL of each variant is written out. Variants here have at most six changes. Values are log10 of the apparent Kd in nM; lower means stronger binding. A mean of the replicates is given; it leaves out those without a signal.

Variant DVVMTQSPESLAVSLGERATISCKSSQSVLYESRNKNSVAWYQQKAGQPPKLLIYDASTRESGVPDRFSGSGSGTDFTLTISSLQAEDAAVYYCQQYHRLPLPFGGGTKVEIK [Ctrl] showed 0.02 (6 of 6 replicates). Variant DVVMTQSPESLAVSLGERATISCYSSQSVLMESRNKNSVAWYQQKAGQPPKLLIYGASTREWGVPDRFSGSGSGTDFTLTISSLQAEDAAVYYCQQYHRLPLSFGGGTKVEIK [Ctrl] showed 1.02 (6 of 6 replicates). Variant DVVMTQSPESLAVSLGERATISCKSFESVLVESRNNNSVAWYQQKAGQPPKLLIYAASTRESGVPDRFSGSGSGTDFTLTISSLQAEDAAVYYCQQYHRLPLSFGGGTKVEIK [Ctrl] gave 1.48 (6 of 6 replicates). Variant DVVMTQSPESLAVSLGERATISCKLSYSELYESRNKNSVAWYQQKAGQPPKLLIYEASTRESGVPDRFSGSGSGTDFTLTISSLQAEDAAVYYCQQYHRLPLSFGGGTKVEIK [GP_Gen] gave 0.04 (6 of 6 replicates). For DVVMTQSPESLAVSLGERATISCKVSQSVWYEQRNKNSVAWYQQKAGQPPKLLIYEASTRESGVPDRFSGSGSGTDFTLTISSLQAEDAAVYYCQQYHRLPLSFGGGTKVEIK [GP_Gen], the assay gave 1.21 (6 of 6 replicates). Variant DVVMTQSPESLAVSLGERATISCKSSQSVLIESRNENSVAWYQQKAGQPPKLLIYWASTRESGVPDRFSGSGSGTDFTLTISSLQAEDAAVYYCQQYHRLPLSFGGGTKVEIK [Ctrl] gave 2.05 (4 of 6 replicates). With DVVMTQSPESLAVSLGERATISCKTGQGVLYESRNKNSVAWYQQKAGQPPKLLIYGASYRESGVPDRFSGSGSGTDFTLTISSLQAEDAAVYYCQQYHRLPLSFGGGTKVEIK [GP_HC] the result was -0.04 (6 of 6 replicates).

With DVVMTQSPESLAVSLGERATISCKSSQSWLYESRNKNSVAWYQQKAGQPPKLLIYEASTREQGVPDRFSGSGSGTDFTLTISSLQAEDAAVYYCQQYHRLPLSFGGGTKVEIK [GP_HC] the result was -0.01 (6 of 6 replicates). Variant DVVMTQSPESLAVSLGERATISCKLSKMVMYESRNKNSVAWYQQKAGQPPKLLIYSASTREEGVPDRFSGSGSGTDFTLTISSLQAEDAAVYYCQQYHRLPLSFGGGTKVEIK [GP_Gibbs] showed 0.52 (6 of 6 replicates). Variant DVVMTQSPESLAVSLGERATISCKYSYSVLYESLNKNSVAWYQQKAGQPPKLLIYWASTRVSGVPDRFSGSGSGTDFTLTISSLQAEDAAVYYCQQYHRLPLSFGGGTKVEIK [Ctrl] gave 2.00 (5 of 6 replicates). For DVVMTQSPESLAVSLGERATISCKISQSVLYESRNKNSVAWYQQKAGQPPKLLIYDASQRESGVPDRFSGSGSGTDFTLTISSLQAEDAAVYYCQQYHRLPLSFGGGTKVEIK [GP_Gen], the assay gave -0.19 (6 of 6 replicates). For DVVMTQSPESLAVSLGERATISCKSSQSVLIQSRNKNSVAWYQQKAGQPPKLLIYDASTRESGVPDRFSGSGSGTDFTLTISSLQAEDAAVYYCQQYHRLPLSFGGGTKVEIK [GP_HC], the assay gave -0.04 (6 of 6 replicates). With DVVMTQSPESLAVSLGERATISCKMPQGVLYESRNKNSVAWYQQKAGQPPKLLIYGASVRESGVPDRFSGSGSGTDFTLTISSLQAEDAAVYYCQQYHRLPLSFGGGTKVEIK [GP_HC] the result was 0.19 (6 of 6 replicates). Variant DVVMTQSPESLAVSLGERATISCKLQQSVLYESRNKNSVAWYQQKAGQPPKLLIYNASTRMQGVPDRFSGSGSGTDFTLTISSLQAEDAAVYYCQQYHRLPLSFGGGTKVEIK [GP_Gen] gave -0.18 (6 of 6 replicates).

For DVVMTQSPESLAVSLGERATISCKSSDSVLYESRNKNSVAWYQQKAGQPPKLLIYTASTRESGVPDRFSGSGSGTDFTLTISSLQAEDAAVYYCQQYHRLPLSFGGGTKVEIK [Ctrl], the assay gave 0.60 (6 of 6 replicates).

A selection of 2 entries from above:

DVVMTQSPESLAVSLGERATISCKLQQSVLYESRNKNSVAWYQQKAGQPPKLLIYNASTRMQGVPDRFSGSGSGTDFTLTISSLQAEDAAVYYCQQYHRLPLSFGGGTKVEIK [GP_Gen]: -0.18 (6 of 6 replicates).
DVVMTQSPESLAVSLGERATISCKSSQSVLIESRNENSVAWYQQKAGQPPKLLIYWASTRESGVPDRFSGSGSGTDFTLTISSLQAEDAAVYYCQQYHRLPLSFGGGTKVEIK [Ctrl]: 2.05 (4 of 6 replicates).

Background: pairings of all light chain designs with three empty control strains gave a value in 4% of cases (median 2.64, 5th percentile 1.59). Values in that range, when seen in few replicates, are hard to tell from nonspecific mating. Values of this round are not directly comparable with the first-round values of the same sequences. The authors' rule: three or more of the six replicates give a measured affinity, fewer mean a poor binder.